What was measured:
recombinant human DHODH = recombinant human DHODH (Homo sapiens (Human), UniProt Q02127); test: DHODH enzyme assay (Assay A), DCIP absorbance; type: biochemical; conditions: read-out: IC50 DHODH inhibition activity
MOLM-13 cells = test: MOLM-13 cell viability (Assay B), Cell Titer-Glo; type: cell-based; conditions: read-out: IC50 MOLM13 inhibition activity
Method: MOLM-13 cells (an acute myeloid leukemia cell line) were plated in RPMI supplied with 10% FBS and 1% Pen/Strep in 384-well plates at 1,000 cells per well on day 0. On day 1, treatment of the cells with compound (concentration range 10E-5 and 6E-12 M) was initiated in the presence or absence of 100 μM uridine. After 72 hours incubation of the cells with or without test compound, the number of viable cells per well was assessed by Cell Titer-Glo Luminescent Cell Viability Assay (Promega, Madison, WI, USA). […] Each condition was tested in duplicate and the potency of test compounds was determined from two independent experiments.

Chains of the proteins cited; added tags and fusions are not shown.
UniProt Q02127, whole entry: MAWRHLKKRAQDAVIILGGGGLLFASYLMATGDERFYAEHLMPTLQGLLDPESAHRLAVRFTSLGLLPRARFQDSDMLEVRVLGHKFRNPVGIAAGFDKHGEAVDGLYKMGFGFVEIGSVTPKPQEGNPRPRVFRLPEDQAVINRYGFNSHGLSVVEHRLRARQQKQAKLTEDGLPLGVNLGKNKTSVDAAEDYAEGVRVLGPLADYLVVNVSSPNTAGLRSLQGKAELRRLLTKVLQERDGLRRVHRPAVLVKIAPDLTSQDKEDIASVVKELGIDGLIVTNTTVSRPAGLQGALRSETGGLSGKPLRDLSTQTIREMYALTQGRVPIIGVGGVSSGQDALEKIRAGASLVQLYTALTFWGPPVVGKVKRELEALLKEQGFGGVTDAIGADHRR

COc1cccc(-n2ncc3c2COC[C@H]3NC(=O)c2ncc3n2CCCC3)c1Cl
IC50 (recombinant human DHODH): < 10 nM | IC50 (MOLM-13 cells): < 10 nM

Reference: US20250388602A1 (Genase Therapeutics B.V., priority 2022, published 2025)
